Assay type in all cases: biochemical
In test [1] the target is thrombin (Bos taurus, UniProt P00735). Briefly: Inhibition of thrombin (dissociation constant Ki).
Test [2] has as its target tPA (Homo sapiens, UniProt P00750). Description: Inhibition of tPA (Ki).
Test [3] deals with T1, plasmin (Homo sapiens, UniProt P00747).
T1 construct: trypsin and the related enzymes thrombin, plasmin, factor Xa, tPA
Briefly: Inhibition of plasmin (Ki).

Protein sequences, listed by entry. Tags and fused reporters are not part of them. Residues count along the entry.
UniProt P00750, 36-562: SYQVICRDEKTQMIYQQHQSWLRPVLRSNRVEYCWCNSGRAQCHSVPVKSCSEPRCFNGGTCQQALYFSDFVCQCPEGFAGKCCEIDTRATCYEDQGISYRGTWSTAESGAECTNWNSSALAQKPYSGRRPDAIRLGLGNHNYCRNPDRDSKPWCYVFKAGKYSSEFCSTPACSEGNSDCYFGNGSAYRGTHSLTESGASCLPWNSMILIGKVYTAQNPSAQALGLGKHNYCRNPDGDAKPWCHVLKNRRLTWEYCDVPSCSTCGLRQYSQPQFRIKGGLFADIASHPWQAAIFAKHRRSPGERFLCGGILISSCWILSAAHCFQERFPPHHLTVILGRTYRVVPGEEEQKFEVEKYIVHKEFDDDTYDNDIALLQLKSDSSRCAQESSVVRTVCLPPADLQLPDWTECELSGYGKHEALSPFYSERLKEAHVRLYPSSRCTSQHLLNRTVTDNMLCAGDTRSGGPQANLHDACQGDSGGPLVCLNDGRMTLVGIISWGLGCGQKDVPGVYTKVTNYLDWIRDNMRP
UniProt P00747, 97-580 partner limits assumed: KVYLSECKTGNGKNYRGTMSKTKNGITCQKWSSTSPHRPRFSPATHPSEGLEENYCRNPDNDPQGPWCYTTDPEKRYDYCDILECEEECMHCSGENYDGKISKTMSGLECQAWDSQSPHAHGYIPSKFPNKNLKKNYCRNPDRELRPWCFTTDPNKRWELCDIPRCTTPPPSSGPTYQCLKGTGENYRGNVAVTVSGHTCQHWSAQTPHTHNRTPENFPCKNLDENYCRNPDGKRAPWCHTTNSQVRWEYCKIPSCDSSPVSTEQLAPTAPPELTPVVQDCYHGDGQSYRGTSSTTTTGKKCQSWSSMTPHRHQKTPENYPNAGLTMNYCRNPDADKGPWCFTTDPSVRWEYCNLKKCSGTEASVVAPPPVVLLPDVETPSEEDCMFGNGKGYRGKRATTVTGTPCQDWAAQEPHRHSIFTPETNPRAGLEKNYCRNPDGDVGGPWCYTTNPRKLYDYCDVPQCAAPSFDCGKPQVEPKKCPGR
UniProt P00747, 581-810 limits assumed: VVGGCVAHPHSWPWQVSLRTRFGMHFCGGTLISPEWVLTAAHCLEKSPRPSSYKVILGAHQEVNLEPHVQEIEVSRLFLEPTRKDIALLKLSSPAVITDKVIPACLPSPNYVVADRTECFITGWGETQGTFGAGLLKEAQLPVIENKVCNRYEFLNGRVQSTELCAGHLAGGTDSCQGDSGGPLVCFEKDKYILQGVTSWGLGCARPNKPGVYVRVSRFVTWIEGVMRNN

The target in test [4] is T2, factor XIIa (Homo sapiens, UniProt P00748).
T2 construct: glandular kallikrein, factor XIIa and plasma kallikrein
T2 sequence (P00748 373-615 limits assumed): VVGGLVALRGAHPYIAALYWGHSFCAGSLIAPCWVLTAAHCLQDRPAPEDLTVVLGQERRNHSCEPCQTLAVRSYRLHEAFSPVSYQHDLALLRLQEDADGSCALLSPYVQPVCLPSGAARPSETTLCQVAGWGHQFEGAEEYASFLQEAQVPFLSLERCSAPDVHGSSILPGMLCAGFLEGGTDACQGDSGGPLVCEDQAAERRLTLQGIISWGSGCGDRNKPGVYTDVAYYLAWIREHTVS
Briefly: Inhibition of factor XIIa (Ki).

Consider `CC1CCN(C(=O)C(Cc2cccc(C(=N)N)c2)NS(=O)(=O)c2ccc3ccccc3c2)CC1` (racemic) [Compound 34], for which the Ki – broadly, the equilibrium dissociation constant of an inhibitor or competing ligand from its target – in test [1] is 0.0086 µM.
Turning to `N=C(N)c1ccc(C[C@H](NC(=O)CNS(=O)(=O)c2ccc3ccccc3c2)C(=O)N2CCCCC2)cc1` [NAPAP, Nα-(2-naphthylsulfonylglycyl)-4-amidinophenylalanine piperidide, reference compound], the Ki in test [2] stood at 70 µM; in test [3] it was 30 µM; in test [4] it was 500 µM.

Values taken from patent US5518735A, “Meta-substituted phenylalanine derivatives” (priority 1990, dated 1996).
